Assays:
[1] = test system: C1494U (RNA, rRNA) GGCGUCACUCCUUCGGGACAAGUCGCC; assay: fluorescent displacement assay; settings: 50 mM Na+; F–NEO displaced (0.1 µM 1:1 complex), 10 mM HEPES, 0.4 mM EDTA, pH 7
[2] = test system: A1555G (RNA, rRNA) GGCGUCACCCCUUCGGGGCAAGUCGCC; assay: fluorescent displacement assay; settings: 50 mM Na+; F–NEO displaced (0.1 µM 1:1 complex), 10 mM HEPES, 0.4 mM EDTA, pH 7

Molecule `NC[C@@H]1O[C@H](O[C@H]2[C@@H](O)[C@H](O[C@@H]3[C@@H](O)[C@H](N)C[C@H](N)[C@H]3O[C@H]3O[C@H](CN)[C@@H](O)[C@H](O)[C@H]3N)O[C@@H]2CO)[C@H](N)[C@@H](O)[C@@H]1O` [NEO, neomycin] has an IC50 [1] of 67.9 ± 2.0 nM and an IC50 [2] of 119.2 ± 3.7 nM.
